The values that follow come from ChEMBL document CHEMBL1687811, “Outbreak of meropenem-resistant Serratia marcescens comediated by chromosomal AmpC beta-lactamase overproduction and outer membrane protein loss” (2010).

This test concerns Escherichia coli. Particulars: J53.

Usually MIC stands for the smallest concentration in the dilution series that meets the test's criterion for growth inhibition. GENTAMICIN had an MIC of 0.5 µg/mL.
